The results in this text go back to ChEMBL document CHEMBL1152353, “Pyrimido[5,4-e][1,2,4]triazine-5,7(1H,6H)-dione derivatives as novel small molecule chaperone amplifiers” (Bioorg Med Chem Lett, 2009).

The assay has as its target T1, Heat shock factor protein 1 (Homo sapiens) (UniProt Q00613).
T1 sequence (whole entry): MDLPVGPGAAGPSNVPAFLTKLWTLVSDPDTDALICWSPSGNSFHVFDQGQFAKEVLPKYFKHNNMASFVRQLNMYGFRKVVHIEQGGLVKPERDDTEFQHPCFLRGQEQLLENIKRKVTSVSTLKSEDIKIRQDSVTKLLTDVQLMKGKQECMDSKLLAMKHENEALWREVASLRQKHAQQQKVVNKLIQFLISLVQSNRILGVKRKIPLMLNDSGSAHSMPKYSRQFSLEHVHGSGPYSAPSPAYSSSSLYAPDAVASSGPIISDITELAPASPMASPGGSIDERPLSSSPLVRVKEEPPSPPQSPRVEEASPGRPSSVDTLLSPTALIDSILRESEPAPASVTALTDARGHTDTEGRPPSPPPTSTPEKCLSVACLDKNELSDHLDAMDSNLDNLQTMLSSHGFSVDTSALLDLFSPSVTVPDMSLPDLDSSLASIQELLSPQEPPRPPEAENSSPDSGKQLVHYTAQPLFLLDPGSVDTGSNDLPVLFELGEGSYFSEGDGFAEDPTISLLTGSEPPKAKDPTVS
The assay is described as follows: Amplification of HSF1 transcriptional activity in human HeLa cells assessed as granule formation pretreated for 3 hrs by immunocytochemical staining. The assay is classed as cell-based. A digest of the protocol:
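HeLa cells pretreated with compound 1 h, then mild heat shock 41 °C for 2 h, no recovery; control arm pretreated 3 h at 37 °C without heat shock. Compound diluted 200-fold, 0.3 to 80 µM range.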

The source made the active and inactive calls. No cut-off for these calls is given here.

In the case of `Cn1c(=O)nc2[nH]nc(-c3cccs3)nc-2c1=O`, the result was inactive.
